# Legend:
# Type in all cases: in vivo, nude/nude mice
# LS180 cells = assay: LS180 colon cancer xenograft, tumor volumes; conditions: 0.25 mg/kg Q3D
# Protocol: (§1) Immunocompromised nude/nude mice are inoculated in the right hind flank with cells harboring a KRas G12D mutation. When tumor volumes reach between 200-400 mm^3 in size, the mice are divided into four to five groups of 5 mice each. The first group is administered vehicle only. […] The fourth or last groups are administered the single agent dose of the KRas G12D inhibitor using the twice daily schedule and/or the 2 sequential days followed by 5 days off schedule in combination with the single agent dose of one of the EGFR inhibitors. The treatment period varies from cell line to cell line but typically is between 15-40 days. Tumor volumes are measured using a caliper every two-three days and tumor volumes are calculated by the formula: […].
# (§2) 20 to 30 nude/nude mice per study were inoculated in the right hind limb with 5×10^6 LS180 cells, AsPC-1 cells, GP2D cells, Panc 02.03 cells, SW1990 cells, or SNU-1033 cells. […] Tumor volumes, measured at pre-specified days, for the five mice per group were averaged and are reported for LS180, AsPC-1, GP2D, Panc 02.03, SW1990, and SNU-1033 in Tables 2, 3, 4, 5 and 6, respectively.
# Experimental Procedures. 25 nude/nude mice were inoculated with LS180 cells in the right hind flank. When the tumors reached ˜250 mm^3 five treatment groups were established with five mice per group.
# GP2D cells = assay: GP2D TGI MDS 200108-807 colorectal cancer xenograft, tumor volumes; conditions: for Average Tumor Volumes: 0.25 mg/kg Q3D
# Protocol: as §1, §2
# Experimental Procedures. 20 nude/nude mice were inoculated with GP2D cells in the right hind flank. When the tumors reached ˜300 mm^3 four treatment groups were established with five mice per group.
# Panc 02.03 = Panc 02.03 TGI-43 pancreatic cancer xenograft (Table 5), tumor volumes; conditions: 0.25 mg/dose Q3D
# Protocol: as §1
# 20 to 30 nude/nude mice per study were inoculated in the right hind limb with 5×10^6 LS180 cells, AsPC-1 cells, GP2D cells, Panc 02.03 cells, SW1990 cells, or SNU-1033 cells. […] Tumor volumes, measured at pre-specified days, for the five mice per group were averaged and are reported for LS180, AsPC-1, GP2D, Panc 02.03, SW1990, and SNU-1033 in Tables 2, 3, 4, 5 and 6, respectively. […]
# SW1990 cells = assay: SW1990 TGI MDS #200407-807 pancreatic cancer xenograft, tumor volumes; conditions: for Average Tumor Volumes: 0.25 mg/dose Q3D every 3 days
# Protocol: as §1, §2
# Experimental Procedures. 30 nude/nude mice were inoculated with SW1990 cells in the right hind flank. When the tumors reached ˜300 mm^3 six treatment groups were established with five mice per group.
# SNU-1033 cells = assay: SNU-1033 TGI 46 colorectal cancer xenograft, tumor volumes; conditions: for Average Tumor Volumes: 0.25 mg/dose Q3D (every 3rd day)
# Protocol: as §1, §2
# Experimental Procedures. 20 nude/nude mice were inoculated with SNU-1033 cells in the right hind flank. When the tumors reached ˜300 mm^3 four treatment groups were established with five mice per group.
# AsPC-1 cells = assay: AsPC-1 TGI 26 pancreatic cancer xenograft, tumor volumes; conditions: for Average Tumor Volumes: 0.25 mg/dose IP Q3D (every 3rd day)
# Protocol: as §1
# Experimental Procedures. 20 nude/nude mice were inoculated with AsPC-1 cells in the right hind flank. When the tumors reached ˜200 mm^3 four treatment groups were established with five mice per group.
substance,measurement,setting,value
Cetuximab: anti-EGFR monoclonal antibody approved for human clinical use (ImClone),tumor growth inhibition,"LS180 cells; single agent, Day 15",15%
same,Average Tumor Volumes,LS180 cells; Study Day 1,274.034 mm^3
same,Average Tumor Volumes,LS180 cells; Study Day 4,502.822 mm^3
same,Average Tumor Volumes,LS180 cells; Study Day 8,854.638 mm^3
same,Average Tumor Volumes,LS180 cells; Study Day 11,1330.518 mm^3
same,Average Tumor Volumes,LS180 cells; Study Day 15,1715.024 mm^3
same,tumor growth inhibition,"GP2D cells; 0.25 mg/dose Q3D, single agent, Day 30",0%
same,Average Tumor Volumes,GP2D cells; Study Day 2,359.72 mm^3
same,Average Tumor Volumes,GP2D cells; Study Day 6,503.18 mm^3
same,Average Tumor Volumes,GP2D cells; Study Day 9,774.9 mm^3
same,Average Tumor Volumes,GP2D cells; Study Day 13,1022.3 mm^3
same,Average Tumor Volumes,GP2D cells; Study Day 16,1333.14 mm^3
same,Average Tumor Volumes,GP2D cells; Study Day 20,1738.12 mm^3
same,Average Tumor Volumes,GP2D cells; Study Day 23,1848.12 mm^3
same,Average Tumor Volumes,GP2D cells; Study Day 27,2033.58 mm^3
same,Average Tumor Volumes,GP2D cells; Study Day 30,2098.62 mm^3
same,tumor growth inhibition,"Panc 02.03; single agent, Day 22",33%
same,Average Tumor Volumes,Panc 02.03; Study Day 1,330.908 mm^3
same,Average Tumor Volumes,Panc 02.03; Study Day 4,382.648 mm^3
same,Average Tumor Volumes,Panc 02.03; Study Day 8,456.018 mm^3
same,Average Tumor Volumes,Panc 02.03; Study Day 11,489.668 mm^3
same,Average Tumor Volumes,Panc 02.03; Study Day 15,589.42 mm^3
same,Average Tumor Volumes,Panc 02.03; Study Day 18,730.102 mm^3
same,Average Tumor Volumes,Panc 02.03; Study Day 22,858.32 mm^3
same,Average Tumor Volumes,SW1990 cells; Study Day 2,448.1 mm^3
same,Average Tumor Volumes,SW1990 cells; Study Day 6,517.16 mm^3
same,Average Tumor Volumes,SW1990 cells; Study Day 9,561.72 mm^3
same,Average Tumor Volumes,SW1990 cells; Study Day 13,641.2 mm^3
same,Average Tumor Volumes,SW1990 cells; Study Day 16,749.78 mm^3
same,Average Tumor Volumes,SW1990 cells; Study Day 20,933.62 mm^3
same,Average Tumor Volumes,SW1990 cells; Study Day 23,1065.66 mm^3
same,Average Tumor Volumes,SW1990 cells; Study Day −1,365.06 mm^3
same,tumor growth inhibition,"SW1990 cells; 0.25 mg/dose Q3D, single agent, Day 23",42%
same,Average Tumor Volumes,SNU-1033 cells; Study Day 1,297.512 mm^3
same,Average Tumor Volumes,SNU-1033 cells; Study Day 5,389.768 mm^3
same,Average Tumor Volumes,SNU-1033 cells; Study Day 8,418.018 mm^3
same,Average Tumor Volumes,SNU-1033 cells; Study Day 12,448.118 mm^3
same,Average Tumor Volumes,SNU-1033 cells; Study Day 15,460.894 mm^3
same,Average Tumor Volumes,SNU-1033 cells; Study Day 19,512.09 mm^3
same,Average Tumor Volumes,SNU-1033 cells; Study Day 22,555.326 mm^3
same,Average Tumor Volumes,SNU-1033 cells; Study Day 26,618.748 mm^3
same,Average Tumor Volumes,SNU-1033 cells; Study Day 29,636.83 mm^3
same,Average Tumor Volumes,SNU-1033 cells; Study Day 33,668.412 mm^3
same,tumor growth inhibition,"SNU-1033 cells; 0.25 mg/dose Q3D, single agent, Day 33",67%
same,Average Tumor Volumes,AsPC-1 cells; Study Day 0,197.598 mm^3
same,Average Tumor Volumes,AsPC-1 cells; Study Day 4,261.156 mm^3
same,Average Tumor Volumes,AsPC-1 cells; Study Day 7,303.582 mm^3
same,Average Tumor Volumes,AsPC-1 cells; Study Day 11,342.314 mm^3
same,Average Tumor Volumes,AsPC-1 cells; Study Day 14,402.046 mm^3
same,Average Tumor Volumes,AsPC-1 cells; Study Day 18,441.54 mm^3
same,Average Tumor Volumes,AsPC-1 cells; Study Day 21,472.884 mm^3
same,Average Tumor Volumes,AsPC-1 cells; Study Day 25,533.024 mm^3
same,tumor growth inhibition,"AsPC-1 cells; 0.25 mg/dose Q3D, single agent, Day 25",0%

# Source: patent US20240408099A1, “COMBINATION […] OF KRAS G12D INHIBITORS WITH Pan ErbB FAMILY INHIBITORS” (MIRATI THERAPEUTICS, INC., priority 2021, published 2024)
